In the test the target is all-L-Aβ40WT (amyloid beta 40, all-L enantiomer) (human). The test can be described thus: cell-based or functional assay.

In the case of “all-D-Aβ40WT (amyloid beta 40, all-D enantiomer) (peptide)”, the Thioflavin T (ThT) fluorescence: start of fibril formation was 0 min and the Thioflavin T (ThT) fluorescence: time to maximum fluorescence for fibril formation was 200 min.
